Yeast mating assay 2: variants of the scFv Ab-91

The measurements come from Engelhart et al. 2022 (doi:10.1038/s41597-022-01779-4) through the FLAb antibody collection.

All variants were tested on one target, the spike HR2 peptide PDVDLGDISGINAS (SARS-CoV-2).

Ab-91 is the parent antibody, in scFv form: VL, then three GGGGS repeats, then VH. The light chain is unchanged in all variants.
VL: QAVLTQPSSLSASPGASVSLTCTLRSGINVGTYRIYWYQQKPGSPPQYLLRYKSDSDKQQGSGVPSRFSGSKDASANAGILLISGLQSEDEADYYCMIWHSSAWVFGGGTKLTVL
VH: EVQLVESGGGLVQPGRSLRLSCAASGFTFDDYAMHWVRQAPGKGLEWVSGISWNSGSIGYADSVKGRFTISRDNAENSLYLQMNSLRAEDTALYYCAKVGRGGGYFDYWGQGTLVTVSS

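Phage display of a naive human antibody library on the peptide gave the parent. AAYL51 was designed without a model: most single CDR substitutions and a random sample of double and triple ones. The assay is AlphaSeq: two haploid yeast populations carry antibody and antigen on their surface. Mating (16 h, 30 °C) was followed by selection of diploids and sequencing of their barcodes. A regression on co-assayed BCL2-family reference pairs converts the normalised counts of each replicate to an apparent Kd. Mating was done three times.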

Substitutions are numbered in sequence along the VH above, starting at 1 (not Kabat). The read-out is the apparent dissociation constant on a log10 scale (nM): the lower, the stronger. Averages over replicates are reported, and they cover detected replicates only. "nd" means that the variant was in the library but no mating with the target was seen in any replicate; the authors take this as a sign of poor binding, and no number exists. Background: pairings of library AAYL51 with three empty control strains gave a value in 21% of cases (median 4.54, 5th percentile 3.26). Values in that range, when seen in few replicates, are hard to tell from nonspecific mating.

The variant F29E/G104K/Y105G showed 4.95 (1 of 3 replicates).
The variant D30I/H35G/N54I showed nd (0 of 3 replicates).
The variant I58E/V64R/G104H showed nd (0 of 3 replicates).
The variant K65V/R101H/Y105E showed 5.29 (2 of 3 replicates).
The variant G100V/G102V showed nd (0 of 3 replicates).
The variant G59Q/V99M showed nd (0 of 3 replicates).
The variant G26T/G56F showed 5.27 (2 of 3 replicates).
The variant I51N/A61S/Y105V showed nd (0 of 3 replicates).
The variant S55H/I58A/Y105R showed 2.18 (3 of 3 replicates).
The variant S57Q/G100D/G104L showed 4.72 (2 of 3 replicates).
The variant M34E/S63P/K65Y showed nd (0 of 3 replicates).
The variant F27H/F29R/Y60A showed nd (0 of 3 replicates).
The variant T28M/D31R/A61T showed 1.08 (3 of 3 replicates).
The variant I51Q/G56L/G100S showed nd (0 of 3 replicates).
The variant G50W/I58D/S63A showed 5.66 (1 of 3 replicates).
The variant I51L/G100D/G104V showed nd (0 of 3 replicates).
The variant K65T/G103R showed 3.05 (1 of 3 replicates).
The variant G26D/H35D/D62F showed nd (0 of 3 replicates).
The variant N54I/S55E/G103Y showed nd (0 of 3 replicates).
The variant G59H/D107W showed 4.20 (1 of 3 replicates).
The variant Y60G/D62E/V99L showed nd (0 of 3 replicates).
The variant G26S/Y60H showed nd (0 of 3 replicates).
The variant D30M/Y32S/G50Q showed 4.33 (1 of 3 replicates).
The variant H35Y/I58C/K65C showed nd (0 of 3 replicates).
The variant D31W/H35V/R101E showed 3.44 (1 of 3 replicates).
The variant G59C/F106P showed 3.91 (1 of 3 replicates).
The variant S55Q/V99S/G104D showed 4.24 (1 of 3 replicates).
The variant A33I/S52N/W53Y showed nd (0 of 3 replicates).
The variant F27G/T28V/S57F showed nd (0 of 3 replicates).
The variant W53C/D107I showed 2.45 (2 of 3 replicates).
The variant S52C/G56E/R101G showed nd (0 of 3 replicates).
The variant Y32E/W53K/F106V showed nd (0 of 3 replicates).
The variant F27L/A33D showed 4.16 (1 of 3 replicates).
The variant G59V/G102S/G104F showed nd (0 of 3 replicates).
The variant A61I/V64C/V99K showed 3.94 (1 of 3 replicates).
The variant D31T/R101A/Y105A showed nd (0 of 3 replicates).
The variant D31T/G50R/I51T showed nd (0 of 3 replicates).
The variant Y32R/G59S/R101W showed nd (0 of 3 replicates).
The variant F29N/D30T/Y108D showed nd (0 of 3 replicates).
The variant D31V/A33Q showed 5.55 (1 of 3 replicates).
The variant D62N/G102Y/G104M showed nd (0 of 3 replicates).
The variant D31Q/G59T/G103D showed nd (0 of 3 replicates).
The variant A33H/N54R/D107R showed nd (0 of 3 replicates).
The variant F106W/D107I/Y108A showed 5.19 (3 of 3 replicates).
The variant G26P/I51A showed nd (0 of 3 replicates).
The variant H35M/Y105Q/Y108M showed nd (0 of 3 replicates).
The variant H35K/V64G showed 5.98 (1 of 3 replicates).
The variant G26W/T28L/A33E showed nd (0 of 3 replicates).

The first 7 variants above that were never detected:

{"changes": "D30I/H35G/N54I", "log10 Kd (nM), mean": "nd", "replicates with signal": "0/3"}
{"changes": "I58E/V64R/G104H", "log10 Kd (nM), mean": "nd", "replicates with signal": "0/3"}
{"changes": "G100V/G102V", "log10 Kd (nM), mean": "nd", "replicates with signal": "0/3"}
{"changes": "G59Q/V99M", "log10 Kd (nM), mean": "nd", "replicates with signal": "0/3"}
{"changes": "I51N/A61S/Y105V", "log10 Kd (nM), mean": "nd", "replicates with signal": "0/3"}
{"changes": "M34E/S63P/K65Y", "log10 Kd (nM), mean": "nd", "replicates with signal": "0/3"}
{"changes": "F27H/F29R/Y60A", "log10 Kd (nM), mean": "nd", "replicates with signal": "0/3"}